SMILES strings stand for the structures.

The data set in a line: Double-sink parallel artificial membrane permeability assay. It is filed as in vitro ADME.

Regarding `CNC(=C[N+](=O)[O-])NCCSCc1ccc(CN(C)C)o1` [rantidine], the “Permeability pH 5.0 (−logPe)” value (pH 5.0) is listed as 5.2 −logPe. The “Permeability pH 6.2 (−logPe)” value (pH 6.2) was 5.1 −logPe. Further, where the note is “pH 7.4”, the “Permeability pH 7.4 (−logPe)” value was > 5.9 −logPe.

The values above are taken from article PMC4805781 (International Journal for Parasitology: Drugs and Drug …, 2016).
